The text below walks through data of US8759537B2, “3H-imidazo [4, 5-C] pyridine-6-carboxamides as anti-inflammatory agents” (Boehringer Ingelheim International GmbH, priority 2010, dated 2014).

The chains behind the UniProt entries cited, without tags or fusion partners.
UniProt O14684, whole entry: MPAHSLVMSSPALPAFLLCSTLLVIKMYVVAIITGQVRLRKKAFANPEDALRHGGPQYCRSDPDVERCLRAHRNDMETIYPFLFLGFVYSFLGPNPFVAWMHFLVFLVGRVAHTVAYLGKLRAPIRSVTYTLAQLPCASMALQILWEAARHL

The assay deals with mPGES-1 (Homo sapiens (Human), UniProt O14684). In words: A549 cell-based assay (PGE2 formation, IL-1β stimulated, 50% human serum). Conditions: read-out: mPGES-1 inhibitory effect in the cell assay, IC50, A549 cells, IL-1β 5 ng/ml.

Turning to `CN1CCC[C@H]1C(=O)NCc1ccc(Cl)c(Nc2nc3cc(C(=O)Nc4ccc(F)c(Cl)c4)c(OCC(F)F)cc3n2C)c1Cl`, the IC50 amounted to 1 nM.
